# Curated experimental data: vapor pressure values

Source: data files of OPERA 2.9 (Mansouri et al.), github.com/kmansouri/OPERA.

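The OPERA project collected these measurements from public sources as training and test data for property models. One number stands for a compound and property, with no spread given. Conditions of the individual experiments are not part of the data. A value may pool stereoisomers or salt forms, and the file does not say which form was measured. Some upstream entries may be estimates or bounds without being marked so.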

Vapor pressure is log10 of mmHg; the set covers 15 to 30 °C, mostly 20 to 25 °C.
Cells with "–" have no entry in this list.

SMILES	name	vapor pressure (log10 mmHg)
Clc1ccc(-c2cc(Cl)c(Cl)c(Cl)c2Cl)c(Cl)c1	2,2',3,4,4',5-Hexachlorobiphenyl	-4.745
C1CCC(NC2CCCCC2)CC1.CC(C)(F)C[C@H](N[C@@H](c1ccc(-c2ccc(S(C)(=O)=O)cc2)cc1)C(F)(F)F)C(=O)O	–	-4.655
CC(C)(C)OOC(C)(C)C#CC(C)(C)OOC(C)(C)C	2,5-Bis(tert-butylperoxy)-2,5-dimethyl-3-hexyne	-4.089
[S-]c1nc2ccccc2[nH]1.[S-]c1nc2ccccc2[nH]1.[Zn+2]	Antioxidant ZMB	-6.815
N#Cc1cccc(C#N)c1	1,3-Benzenedicarbonitrile	-2
ClC=CCCl	1,3-Dichloropropene	1.477
Oc1c(Br)c(Br)c(Br)c(Br)c1Br	Pentabromophenol	-6.426
CC(C)=CC1C(C(=O)OC(C#N)c2cccc(Oc3ccccc3)c2)C1(C)C (stereo not drawn)	Cyphenothrin	-6.046
Oc1cc(Cl)ccc1Oc1ccc(Cl)cc1Cl	Triclosan	-5.28
Cl.N=C(Nc1ccccc1)Nc1ccccc1	1,3-Diphenylguanidine hydrochloride (1:1)	-7.785
CC1(C)S[C@@H]2[C@H](N)C(=O)N2[C@H]1C(=O)O	6-Aminopenicillanic acid	-5.549
O=C(NC(=O)c1c(F)cccc1F)Nc1cc(Cl)c(OC(F)(F)C(F)C(F)(F)F)c(Cl)c1F (stereo not drawn)	Noviflumuron	-11.53
CC1=NNC(=O)N(/N=C/c2cccnc2)C1	Pymetrozine	-7.523
Cc1cc(Cc2cc(C)c(N)c(C)c2)cc(C)c1N	4,4'-Methylenebis(2,6-xylidine)	-7.618
C[C@@]12CC[C@@H]3[C@H](CCC4=CC(=O)C=C[C@]43C)[C@H]1CCC2=O	Androsta-1,4-diene-3,17-dione	-8.949
CC(C(=O)O)N(C(=O)c1ccccc1)c1ccc(F)c(Cl)c1 (stereo not drawn)	Flamprop	-8.747
CC(C)(C)OOC1(OOC(C)(C)C)CCCCC1	Cyclohexylidenebis(tert-butyl) peroxide	-1.035
CC1OC(C)OC(C)OC(C)O1 (stereo not drawn)	2,4,6,8-Tetramethyl-1,3,5,7-tetroxocane	-1.353
Clc1ccc(-c2ccc(Cl)c(Cl)c2)cc1	3,4,4'-Trichlorobiphenyl	-4.205
CC(=O)c1cc2c(cc1C)C(C)(C)C(C)CC2(C)C (stereo not drawn)	Tonalide	-3.291
CCCCCC(CCC)COC(=O)c1ccccc1C(=O)OCC(CCC)CCCCC (stereo not drawn)	Bis(2-propylheptyl) phthalate	-7.557
Clc1ccc(-c2ccccc2)c(Cl)c1Cl	2,3,4-Trichlorobiphenyl	-3.695
CC(C)(c1ccc(O)cc1)c1cccc(C(C)(C)c2ccc(O)cc2)c1	1,3-Bis[1-methyl-1-(4-hydroxyphenyl)ethyl]benzene	-5.354
CCCCC(CC)COP(=S)([S-])OCC(CC)CCCC.CCCCC(CC)COP(=S)([S-])OCC(CC)CCCC.[Zn+2] (stereo not drawn)	–	-5.502
COc1ccc(CN2CCNCC2)c(OC)c1OC	Trimetazidine	-4.727
CCCCC(CC)C(=O)OOC(C)(C)C (stereo not drawn)	Hexaneperoxoic acid, 2-ethyl-, 1,1-dimethylethyl ester	-1.736
Clc1ccccc1-c1c(Cl)cccc1Cl	2,2',6-Trichlorobiphenyl	-2.907
CCOC(=O)Cc1ccccc1	Ethyl phenylacetate	-0.696
COc1cc(OC)nc(NC(=O)NS(=O)(=O)c2ncccc2C(F)(F)F)n1	Flazasulfuron	-7.001
Clc1c(Cl)c(Cl)c(-c2ccccc2)c(Cl)c1Cl	2,3,4,5,6-Pentachlorobiphenyl	-4.595
OC(c1ccc(F)cc1)(c1cncnc1)c1ccccc1Cl (stereo not drawn)	Nuarimol	-7.693
Cc1ccc(-c2c(Cl)nc(C#N)n2S(=O)(=O)N(C)C)cc1	–	-7.001
CCCCCCCCCCCC(=O)OO	Dodecaneperoxoic acid	-3.602
NC(=O)OC[C@H](O)[C@@H](O)[C@H](N)C(=O)N[C@H](C(=O)O)[C@H]1O[C@@H](n2cc(C(=O)O)c(=O)[nH]c2=O)[C@H](O)[C@@H]1O	Polyoxin D	-0.001
C[Si](C)(C)CC(O)(Cn1cncn1)c1ccc(F)cc1 (stereo not drawn)	Simeconazole	-6.393
COC12C[C@@H](CO)CN(C)[C@@H]1Cc1cn(C)c3cccc2c13 (some centres not stated)	(10-Methoxy-1,6-dimethylergolin-8-yl)methanol	-9.639
CCOC(=O)COc1ccc(Cl)cc1Cl	–	-2.959
Clc1cc(Cl)c(Cl)c(-c2c(Cl)cccc2Cl)c1	2,2',3,5,6'-Pentachlorobiphenyl	-4.265
CCOC(=O)CP(=O)(OCC)OCC	Triethyl phosphonoacetate	-2.34
C=CCOC(=O)c1ccccc1C(=O)OCC=C	Diallyl phthalate	-3.797
CCC(=NOC/C=C/Cl)C1=C(O)CC(C2CCOCC2)CC1=O (stereo partly drawn)	Tepraloxydim	-6.693
Nc1cc(Cl)cc(C(=O)O)c1Cl	Chloramben	-2.156
CCOCN(C(=O)CCl)c1c(C)cccc1CC	Acetochlor	-6.783
CC(C)(C)OOC(C)(C)c1ccc(C(C)(C)OOC(C)(C)C)cc1	1,4-Bis(1-tert-butyldioxy-1-methylethyl)benzene	-6.171
O=c1[nH]c2ccccc2c(=O)o1	2H-3,1-Benzoxazine-2,4(1H)-dione	-8.138

The first 6 entries again:

SMILES	name	vapor pressure (log10 mmHg)
Clc1ccc(-c2cc(Cl)c(Cl)c(Cl)c2Cl)c(Cl)c1	2,2',3,4,4',5-Hexachlorobiphenyl	-4.745
C1CCC(NC2CCCCC2)CC1.CC(C)(F)C[C@H](N[C@@H](c1ccc(-c2ccc(S(C)(=O)=O)cc2)cc1)C(F)(F)F)C(=O)O	–	-4.655
CC(C)(C)OOC(C)(C)C#CC(C)(C)OOC(C)(C)C	2,5-Bis(tert-butylperoxy)-2,5-dimethyl-3-hexyne	-4.089
[S-]c1nc2ccccc2[nH]1.[S-]c1nc2ccccc2[nH]1.[Zn+2]	Antioxidant ZMB	-6.815
N#Cc1cccc(C#N)c1	1,3-Benzenedicarbonitrile	-2
ClC=CCCl	1,3-Dichloropropene	1.477